Source: patent US5006522A, “Condensed diazepinones, processes for preparing them and pharmaceutical compositions containing these compounds” (Karl Thomae GmbH, priority 1988, dated 1991)
pIC50: −log10 of the molar value.

Chains of the proteins cited; added tags and fusions are not shown.
UniProt P31390, whole entry: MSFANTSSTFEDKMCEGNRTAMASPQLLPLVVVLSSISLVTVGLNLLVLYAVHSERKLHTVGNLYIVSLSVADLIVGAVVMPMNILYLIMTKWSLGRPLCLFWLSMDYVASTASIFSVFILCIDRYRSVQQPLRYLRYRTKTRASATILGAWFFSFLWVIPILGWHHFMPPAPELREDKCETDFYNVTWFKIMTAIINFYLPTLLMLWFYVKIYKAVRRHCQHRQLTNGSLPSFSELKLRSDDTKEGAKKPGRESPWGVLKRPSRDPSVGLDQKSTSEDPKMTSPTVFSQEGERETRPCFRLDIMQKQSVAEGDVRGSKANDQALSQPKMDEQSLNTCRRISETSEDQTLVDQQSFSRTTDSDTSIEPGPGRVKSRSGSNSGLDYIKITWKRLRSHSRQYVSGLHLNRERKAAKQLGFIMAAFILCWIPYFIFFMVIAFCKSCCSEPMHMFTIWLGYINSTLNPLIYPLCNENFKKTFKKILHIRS

Experiments:
[1] = molecular target: T1, histamine-H1 receptor (Rattus norvegicus, UniProt P31390); experiment: Binding to the histamine-H1 receptor (3H-pyrilamine); settings: 2 nM 3H-pyrilamine, ambient temperature, 60 min, whole rat brain without cerebellum
T1 construct: whole rat brains were used without the cerebellum; from tissue; host or cells: membranes of whole rat brain without cerebellum

[2] = molecular target: muscarinic receptors (cerebral cortex); experiment: Binding to muscarinic receptors, 3H-NMS displacement, cerebral cortex; set-up: species or system rat (male Sprague-Dawley); settings: 0.3 nM 3H-NMS, 30° C., 45 min, pH 7.4; read-out: IC50 receptor binding test, Cortex (C)

COc1ccc(CN(CCN(C)C)c2ccccn2)cc1 [Pyrilamine, reference compound]
pIC50 [1]: 8.15

CCN(CC)CC1CCCCN1CC(=O)N1c2ccccc2C(=O)Nc2cccnc21 (centres unmarked) [D, 11-[[2-[(diethylamino)methyl]-1-piperidinyl]acetyl]-5,11-dihydro-6H-pyrido[2,3-b][1,4]benzodiazepin-6-one, reference compound]
pIC50 [2]: 5.92
